This passage reports Inhibition results from patent publication EP0522203A1, “Protein from lactic acid bacteria” (PROBICOM RESEARCH B.V., priority 1991, dated 1993).

The experiment relates to endopeptidase. The experiment is described as follows: Effect of potential inhibitors (chemical agents) on the endopeptidase activity (metenkaphalin hydrolysis, TLC). Conditions: 1 mM chemical agent, purified enzyme 4 µg protein preincubated 10 min at 20°C, metenkaphalin 15 min at 30°C. In kind it is biochemical, L. lactis subsp. cremoris Wg2.

On to `O=[As]c1ccccc1` (stereo not shown), for which the Inhibition entry is listed as “-”.
